Laboratory results taken from ChEMBL document CHEMBL1138465, “N-aryl-oxazolidin-2-imine muscle selective androgen receptor modulators enhance potency through pharmacophore reorientation” (J Med Chem, 2009).

Legend:
Androgen receptor [1] = target: Androgen receptor (Homo sapiens, UniProt P10275); assay: Displacement of [3H[DHT from androgen receptor endogenously expressed in human MDA-MB-453 cells; assay type: cell-based
Androgen receptor [2] = target: T1, Androgen receptor (Rattus norvegicus, UniProt P15207); assay: Agonist activity at rat androgen receptor expressed in mouse skeletal muscle C2C12 cells assessed as transcriptional activation after 24 hrs by androgen-specific response element driven luciferase reporter gene assay; assay type: functional, cell-based
T1 sequence (P15207 whole entry): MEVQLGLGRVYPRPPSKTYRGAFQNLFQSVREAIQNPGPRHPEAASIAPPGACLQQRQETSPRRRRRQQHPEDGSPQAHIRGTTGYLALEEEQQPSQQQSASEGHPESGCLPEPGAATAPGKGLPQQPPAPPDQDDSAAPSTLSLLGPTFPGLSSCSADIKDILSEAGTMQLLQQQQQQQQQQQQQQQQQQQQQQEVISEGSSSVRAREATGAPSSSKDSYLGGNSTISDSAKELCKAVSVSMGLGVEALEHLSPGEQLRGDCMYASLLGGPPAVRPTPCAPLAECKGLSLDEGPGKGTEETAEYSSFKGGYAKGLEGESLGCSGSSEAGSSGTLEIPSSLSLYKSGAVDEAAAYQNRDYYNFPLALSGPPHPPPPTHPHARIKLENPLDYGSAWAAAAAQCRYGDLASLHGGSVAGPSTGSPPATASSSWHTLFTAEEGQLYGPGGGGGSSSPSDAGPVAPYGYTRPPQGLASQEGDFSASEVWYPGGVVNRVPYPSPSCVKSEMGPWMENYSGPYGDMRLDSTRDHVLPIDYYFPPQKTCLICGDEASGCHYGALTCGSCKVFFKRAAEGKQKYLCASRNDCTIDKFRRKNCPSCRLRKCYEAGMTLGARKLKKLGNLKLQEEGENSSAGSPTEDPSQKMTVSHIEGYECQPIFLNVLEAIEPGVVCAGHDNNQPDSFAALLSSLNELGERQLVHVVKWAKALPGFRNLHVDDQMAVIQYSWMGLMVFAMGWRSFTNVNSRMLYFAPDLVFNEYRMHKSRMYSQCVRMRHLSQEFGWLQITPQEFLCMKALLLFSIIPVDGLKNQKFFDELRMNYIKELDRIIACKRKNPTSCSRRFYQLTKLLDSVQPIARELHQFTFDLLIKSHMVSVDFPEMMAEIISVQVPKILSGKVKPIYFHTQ

Q: `Cc1c(N2C(=O)N3CC[C@H](O)[C@H]3[C@@H]2C)ccc(C#N)c1Cl` was tested. Which Ki (Androgen receptor [1]) did it give?
A: 1.6 nM

Q: What about the EC50 (Androgen receptor [2]) of the same compound?
A: 5.4 nM
